Source: PMC6130761, “Isolation, crystal structure determination and cholinesterase inhibitory potential of isotalatizidine hydrate from Delphinium denudatum” (Pharmaceutical Biology, 2016)

Protein sequences, listed by entry. Tags and fused reporters are not part of them. Residues count along the entry.
UniProt O42275, 24-633: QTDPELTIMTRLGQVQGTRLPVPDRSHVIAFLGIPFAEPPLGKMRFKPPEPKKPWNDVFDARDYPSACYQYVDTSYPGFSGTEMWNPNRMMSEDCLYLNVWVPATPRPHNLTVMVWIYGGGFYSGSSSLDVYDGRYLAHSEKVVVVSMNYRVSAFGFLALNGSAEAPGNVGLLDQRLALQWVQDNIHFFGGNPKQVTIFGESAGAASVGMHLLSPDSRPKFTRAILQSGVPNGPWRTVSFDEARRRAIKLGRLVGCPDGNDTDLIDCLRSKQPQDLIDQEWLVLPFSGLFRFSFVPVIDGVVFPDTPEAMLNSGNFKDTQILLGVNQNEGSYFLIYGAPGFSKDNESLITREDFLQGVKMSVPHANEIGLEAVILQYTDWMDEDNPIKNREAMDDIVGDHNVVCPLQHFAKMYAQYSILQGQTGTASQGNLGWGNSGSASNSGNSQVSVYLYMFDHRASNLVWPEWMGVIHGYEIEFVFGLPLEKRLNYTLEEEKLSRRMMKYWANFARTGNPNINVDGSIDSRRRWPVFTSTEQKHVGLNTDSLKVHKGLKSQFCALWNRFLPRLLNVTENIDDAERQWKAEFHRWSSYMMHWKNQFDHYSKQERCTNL
UniProt P81908, whole entry: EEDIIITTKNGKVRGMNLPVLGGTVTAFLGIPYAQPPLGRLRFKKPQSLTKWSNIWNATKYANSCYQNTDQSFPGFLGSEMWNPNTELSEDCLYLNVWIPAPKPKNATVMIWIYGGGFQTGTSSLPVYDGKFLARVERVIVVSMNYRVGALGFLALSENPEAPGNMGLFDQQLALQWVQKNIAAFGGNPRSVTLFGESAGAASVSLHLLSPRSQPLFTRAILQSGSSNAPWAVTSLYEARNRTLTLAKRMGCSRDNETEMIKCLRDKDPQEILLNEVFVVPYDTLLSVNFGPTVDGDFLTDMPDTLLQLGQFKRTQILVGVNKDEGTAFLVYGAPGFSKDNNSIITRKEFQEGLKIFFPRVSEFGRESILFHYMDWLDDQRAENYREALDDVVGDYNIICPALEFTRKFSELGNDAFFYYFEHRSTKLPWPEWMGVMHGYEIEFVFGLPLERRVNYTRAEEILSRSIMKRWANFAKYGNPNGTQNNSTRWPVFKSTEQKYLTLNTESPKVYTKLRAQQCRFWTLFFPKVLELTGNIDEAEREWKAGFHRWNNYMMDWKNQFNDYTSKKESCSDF

How the values were obtained:
[1] = biological target: T1, AChE (Electric-eel EC 3.1.1.7) (Electrophorus electricus, UniProt O42275); type: biochemical; settings: pH 8; read-out: AChE ± SEM (IC50)
T1 construct: purchased Sigma Aldrich

[2] = biological target: T2, BChE (horse-serum E.C 3.1.1.8) (Equus caballus, UniProt P81908); test: Cholinesterase inhibition assay (Ellman spectrophotometric method), BChE; type: biochemical; settings: standard error of mean of five assays; DTNB, pH 8.0, 25 °C; read-out: BChE ± SEM (IC50)
T2 construct: purchased Sigma Aldrich; host or cells: horse serum

Substance: Allanzanthane A [reference compound]
- IC50 [1]: 8.23 ± 0.01 µM
- IC50 [2]: 18 ± 0.06 µM
